The chains behind the UniProt entries cited, without tags or fusion partners.
UniProt P31424, whole entry: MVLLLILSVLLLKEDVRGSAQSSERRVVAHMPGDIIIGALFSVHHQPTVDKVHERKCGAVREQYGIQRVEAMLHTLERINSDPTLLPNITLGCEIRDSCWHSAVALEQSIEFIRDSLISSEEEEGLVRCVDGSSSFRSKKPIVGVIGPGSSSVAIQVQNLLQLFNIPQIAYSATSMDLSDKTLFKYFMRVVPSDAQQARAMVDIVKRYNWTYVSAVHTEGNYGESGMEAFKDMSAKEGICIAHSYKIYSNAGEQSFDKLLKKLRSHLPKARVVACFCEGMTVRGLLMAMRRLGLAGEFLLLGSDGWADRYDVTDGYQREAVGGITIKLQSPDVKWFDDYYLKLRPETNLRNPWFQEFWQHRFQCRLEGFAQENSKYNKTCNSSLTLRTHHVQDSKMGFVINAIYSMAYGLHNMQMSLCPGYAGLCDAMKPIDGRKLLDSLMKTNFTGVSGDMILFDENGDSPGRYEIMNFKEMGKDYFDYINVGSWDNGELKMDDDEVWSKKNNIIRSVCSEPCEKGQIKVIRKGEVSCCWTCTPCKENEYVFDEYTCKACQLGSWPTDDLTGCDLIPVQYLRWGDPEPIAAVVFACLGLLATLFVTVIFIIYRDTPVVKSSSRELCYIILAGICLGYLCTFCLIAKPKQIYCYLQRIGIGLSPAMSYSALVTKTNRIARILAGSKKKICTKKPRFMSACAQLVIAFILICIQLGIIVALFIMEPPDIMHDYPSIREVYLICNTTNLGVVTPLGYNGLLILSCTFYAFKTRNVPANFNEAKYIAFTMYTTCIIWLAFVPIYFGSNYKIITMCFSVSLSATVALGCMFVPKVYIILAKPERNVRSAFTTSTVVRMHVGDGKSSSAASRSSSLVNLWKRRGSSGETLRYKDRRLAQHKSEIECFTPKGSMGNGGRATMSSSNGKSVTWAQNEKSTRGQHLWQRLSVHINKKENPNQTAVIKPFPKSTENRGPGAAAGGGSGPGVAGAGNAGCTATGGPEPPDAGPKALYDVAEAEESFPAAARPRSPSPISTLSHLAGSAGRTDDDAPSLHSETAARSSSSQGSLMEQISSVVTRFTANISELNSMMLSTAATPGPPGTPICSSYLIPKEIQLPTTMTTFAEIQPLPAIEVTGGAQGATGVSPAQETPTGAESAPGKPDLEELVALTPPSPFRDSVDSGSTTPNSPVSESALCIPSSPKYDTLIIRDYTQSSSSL

According to ChEMBL document CHEMBL1141902, “Functionalization at position 3 of the phenyl ring of the potent mGluR5 noncompetitive antagonists MPEP” (Bioorg Med Chem Lett, 2005):

Target: Metabotropic glutamate receptor 5 (Rattus norvegicus, UniProt P31424)
Assay: Concentration required for 50% inhibition of rat metabotropic glutamate receptor 5 was determined using inositol phosphate hydrolysis assay

IC50: 36 nM
SMILES: Cc1cccc(C#Cc2ccccc2)n1
